A short description of this data set: in vivo. Conditions: mouse, ip.

By LD50 is commonly meant the dose expected to kill half of the subjects tested. A low value points to a more toxic substance. Compound `O=C1NC(=O)C(c2ccccc2)(c2ccccc2)N1` [PHENYTOIN] showed an LD50 at 72 h of 200 mg/kg.
